The source of these data is patent publication US11414387B2, “Oxoacridinyl acetic acid derivatives and methods of use” (Stingthera, Inc., priority 2017, dated 2022).

By UniProt entry, the sequences of proteins in these tests, tags left out. Residues count along the entry.
UniProt Q86WV6, 140-379 H232R limits assumed: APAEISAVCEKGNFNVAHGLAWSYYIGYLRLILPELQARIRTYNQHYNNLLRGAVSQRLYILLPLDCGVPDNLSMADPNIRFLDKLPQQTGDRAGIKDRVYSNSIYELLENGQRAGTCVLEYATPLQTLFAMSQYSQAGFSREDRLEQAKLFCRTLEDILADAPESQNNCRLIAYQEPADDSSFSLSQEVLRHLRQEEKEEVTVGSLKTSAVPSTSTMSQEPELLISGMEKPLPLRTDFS
UniProt Q86WV6, 135-379 limits assumed: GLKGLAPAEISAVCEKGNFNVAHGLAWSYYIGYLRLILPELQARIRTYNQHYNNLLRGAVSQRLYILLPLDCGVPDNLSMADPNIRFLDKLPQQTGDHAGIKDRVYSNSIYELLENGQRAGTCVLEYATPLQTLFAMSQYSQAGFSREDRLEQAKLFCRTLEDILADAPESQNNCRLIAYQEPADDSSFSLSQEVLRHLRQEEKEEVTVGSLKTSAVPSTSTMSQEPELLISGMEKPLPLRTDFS
UniProt Q86WV6, whole entry H232R: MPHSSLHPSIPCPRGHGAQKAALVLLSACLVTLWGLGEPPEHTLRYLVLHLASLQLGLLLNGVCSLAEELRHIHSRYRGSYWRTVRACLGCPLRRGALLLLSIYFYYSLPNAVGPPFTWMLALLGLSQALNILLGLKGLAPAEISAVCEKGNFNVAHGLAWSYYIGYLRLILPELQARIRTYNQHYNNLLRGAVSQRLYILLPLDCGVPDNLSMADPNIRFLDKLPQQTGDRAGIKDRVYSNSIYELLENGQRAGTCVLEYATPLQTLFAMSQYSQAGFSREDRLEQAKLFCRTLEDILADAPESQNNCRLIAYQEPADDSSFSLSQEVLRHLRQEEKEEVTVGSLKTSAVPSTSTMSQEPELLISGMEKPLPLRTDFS
UniProt Q3TBT3, 134-378 limits assumed: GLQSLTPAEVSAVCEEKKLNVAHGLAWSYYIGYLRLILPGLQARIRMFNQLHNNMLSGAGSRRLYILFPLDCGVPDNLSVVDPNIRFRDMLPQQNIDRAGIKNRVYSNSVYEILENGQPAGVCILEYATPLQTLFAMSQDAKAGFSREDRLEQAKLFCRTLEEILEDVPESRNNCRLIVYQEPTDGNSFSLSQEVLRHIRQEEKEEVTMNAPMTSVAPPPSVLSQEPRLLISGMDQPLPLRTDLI

Where two headings read alike, the source gives them in different places.

The target of one test is hSTING-R232 (Homo sapiens (Human), UniProt Q86WV6, H232R). Kind of test: STING differential scanning fluorimetry (DSF) assay, WT human STING. As to conditions: WT (R232) human STING aa140-379, net shift in melting temperature. For orientation: DSF heats the sample and reads unfolding from a dye or from intrinsic fluorescence.
The next test addresses hSTING-WT (Homo sapiens (Human), UniProt Q86WV6, H232R). The test is described as follows: Radiometric filtration binding competition assay, hSTING-WT. As to conditions: wild-type human STING.
The next test addresses hSTING-CTD (Homo sapiens (Human), UniProt Q86WV6). Kind of test: Human STING protein FP competition concentration response assay. As to conditions: read-out: hSTING IC50.
The next test concerns the target STING protein (Homo sapiens (Human), UniProt Q86WV6, H232R). The test is described as follows: Cell based reporter assay of IRF activation (IRF-luciferase), THP1-dual-KI R232. The following applies: THP1-dual-KI R232 cells, HPE 100 μM 2′3′cGAMP. On the technique in general: A reporter such as luciferase makes a cellular process visible.
Another test deals with mSTING-CTD (Mus musculus (Mouse), UniProt Q3TBT3). The test is described as follows: Mouse STING protein FP competition concentration response assay. As to conditions: read-out: mSTING IC50.

A word on the IC50: it is the concentration that gives 50% inhibition. For `CCSc1c(Cl)ccc2c(=O)c3ccc(C(C)(C)C)cc3n(CC(=O)O)c12`, at hSTING-R232, the “WT_DSF_hSWAT Tm Shift (° C.)” value is “D (“D” > 7° C.)”. Also, at hSTING-WT (read-out: WT-hSWAT IC50 (μM) (WT_FBA_HIS-SUMO-hSWAT IC50), filtration binding assay, H3 labeled 2′3′cGAMP probe), the IC50 is under 20 µM.
With `Cc1ccc2c(c1)N(CC(=O)O)c1c(ccc(Cl)c1Cl)C2`, the IC50 on hSTING-CTD fell in the range of 500 to 1000 µM.
For the molecule `COc1c(Cl)ccc2c(=O)c3ccc(N)cc3n(CC(=O)O)c12`, the “THP1-dual-KI R232_IRF(Luciferase)_Activity Maximum measured (%)” value on STING protein is on record as “A (“A” < 5%)”. At hSTING-R232, the “WT_DSF_hSWAT Tm Shift (° C.)” value is “C (“C” = 2-7° C,)”. Moreover, the IC50 on hSTING-WT (read-out: WT-hSWAT IC50, WT_FBA_HIS-SUMO-hSWAT, filtration binding vs H3 2′3′cGAMP) is 100 to 300 µM.
As to `O=C(O)Cn1c2ccccc2c(=O)c2cc(C3CCCCC3)ccc21`, the results for the half-maximal inhibitory concentration (IC50) at hSTING-CTD and at mSTING-CTD were 500 to 1000 µM and over 100 µM, respectively.
